Source: patent US9096629B2, “Process of forming iron hydroxypyrone compounds” (Iron Therapeutics Holdings AG, priority 2011, dated 2015)

ferric hydroxide [Fe(OH)3]
solubility in ethanol: insoluble
